Literature values as cited in EP1928431B1, “CONTROLLED RELEASE PHARMACEUTICAL COMPOSITION CONTAINING CARVEDILOL” (Egis Gyógyszergyár Nyilvánosan Múködö Részvénytársaság, priority 2005, dated 2007).

Conditions: ratio to carvedilol base; WO 03/092622

Substance: carvedilol monocitrate
- more soluble in water than carvedilol base: 100 times
